# According to patent publication US5633345A, “Cyclic peptides” (priority 1992, dated 1997):
# Settings: mouse, in vivo, ip, 100 mg/kg
row,Substance,toxicity signs
1,cyclo(L-GluOR-L-MeVal-L-Leu-L-βHOMeVal-D-Hmp-L-MeVal-L-Phe-L-MePhe-L- Pro) (R: n-octyl) [Compound 32],no toxicity signs
2,cyclo(L-aIle-L-ROMeNva-L-Leu-L-βHOMeVal-D-Hmp-L-MeVal-L-Phe-L-MePhe-L-Pro) (R: Bzl) [Compound 27],no toxicity signs
3,cyclo(L-GluOR-L-MeVal-L-Leu-L-βHOMeVal-D-Hmp-L-MeVal-L-Phe-L-MePhe-L- Pro) (R: n-hexyl) [Compound 31],no toxicity signs
4,cyclo(L-GluOR-L-MeVal-L-Leu-L-βHOMeVal-D-Hmp-L-MeVal-L-Phe-L-MePhe-L- Pro) (R: n-decyl) [Compound 33],no toxicity signs
5,cyclo(L-RONva-L-MeVal-L-Leu-L-βHOMeVal-D-Hmp-L-MeVal-L-Phe-L-MePhe-L- Pro) (R: n-hexanoyl) [Compound 37],no toxicity signs
6,cyclo(L-aIle-L-MeVal-L-GluOR-L-βHOMeVal-D-Hmp-L-MeVal-L-Phe-L-MePhe-L-Pro) (R: cHex) [Compound 38],no toxicity signs
